Only a part is listed here, and it is no random draw. Records with an inconclusive call do not appear. Calls of active or inactive are those of the source. Calls follow the shape of the dose curve; as a rule, active = well fitted inhibition curve with a large enough effect; inconclusive = small, poorly fitted or top-dose-only effect; inactive = no such curve, though single readings can be large or run the other way.
% is scaled to controls: 0 for no effect and ±100 for the full control effect.

The chains behind the UniProt entries cited, without tags or fusion partners.
UniProt Q99714, whole entry: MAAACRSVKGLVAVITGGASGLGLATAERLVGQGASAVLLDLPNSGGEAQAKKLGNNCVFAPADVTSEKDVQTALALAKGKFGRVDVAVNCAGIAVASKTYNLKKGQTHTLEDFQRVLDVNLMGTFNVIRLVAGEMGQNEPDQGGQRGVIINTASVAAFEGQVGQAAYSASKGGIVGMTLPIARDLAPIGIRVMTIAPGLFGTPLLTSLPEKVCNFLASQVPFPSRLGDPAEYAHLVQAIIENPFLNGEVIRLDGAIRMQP

For the assay, the target named is 3-hydroxyacyl-CoA dehydrogenase type-2 (Homo sapiens) (UniProt Q99714). The assay is described as follows: qHTS Assay for Inhibitors of HADH2 (Hydroxyacyl-Coenzyme A Dehydrogenase, Type II). Also: nearly all actives have a fitted effect of over 60% in size. Conditions: recombinant HADH2, NADH fluorescence, beta-hydroxybutyryl-CoA; at 57.1 µM (top of the series) unless noted. On the technique in general: In qHTS, concentration-response curves come from the screen itself.
Regarding `N#CC1(Nc2ccccc2)CCN(CCc2ccccc2)CC1`, the activity change, negative = inhibition was inactive: -1.24%. As for `NC1CCCCC1.NP(=O)(O)N(CCCl)CCCl`, the figure is inactive: 3.28% [at 11.4 µM]. As for `CCOP(=O)(Cl)Cl`, the figure is inactive: -2.31%; as for `O=C(OC1CN2CCC1CC2)C1c2ccccc2Oc2ccccc21` (stereo not given), inactive: 11.3%.

With `Fc1ccccc1NC1CCN(Cc2ccccc2)CC1`, the activity change, negative = inhibition is inactive: -4.76%.

`CCC(CO)(C(=O)OC1CN2CCC1CC2)c1ccccc1` (stereo not given): the activity change, negative = inhibition was inactive: 5.37%.

Turning to `O=C(O)C1(Nc2ccccc2)CCN(Cc2ccccc2)CC1`, the activity change, negative = inhibition was inactive: 10.8% [at 11.4 µM].

Regarding `CCOc1ncccc1C(=O)NCC1(N2CCOCC2)CCCCC1`, the activity change, negative = inhibition was inactive: 2.1%. The same measure for `N/C(=N\O)c1c(N)no[n+]1[O-]`: inactive: -0.352%; for `ClCCOP(OCCCl)OCCCl`: inactive: -3.75%.

Values taken from PubChem BioAssay AID886 (National Center for Advancing Translational Sciences (NCATS), 2007).
